Results as given in ChEMBL document CHEMBL1629424, “Does conjugation of antioxidants improve their antioxidative/anti-inflammatory potential?” (Bioorg Med Chem, 2010).

Experiment: Antioxidant activity of the compound assessed as reducing activity of DPPH at 0.1 mM after 20 mins
Type: functional
Design: scale not given: the % may be the effect or the level left

CC(Cc1ccc(O)c(O)c1)C(C)Cc1ccc(O)c(O)c1 (stereo unspecified)
Activity: 81%
